These results are taken from PMC12114195, “Synthesis, Experimental and Computational Evaluation of SERAAK1 as a 5-HT2A Receptor Ligand” (Molecules, 2025).

The data set is described as follows: PAMPA passive permeability. The class given is in vitro ADME. To be noted: PBS pH 7.4, 5 h, read-out: Pe ± SD. On the procedure: The PAMPA assay was utilized to evaluate the ability of SERAAK1 to passively diffuse through a lipid-infused artificial membrane. The results, gathered in Table 3, were expressed as permeability coefficient Pe, calculated according to the formulas described elsewhere.
The pre-coated PAMPA Plate System Gentest from Corning (Tewksbury, MA, USA) was used in experiments using the instructions of the manufacturer. SERAAK1 and reference compounds were diluted in the PBS buffer (pH 7.4) to the final concentration of 100 μM and placed on the 96-well donor microplate. The exact quantity of molecules that successfully penetrated from donor to acceptor wells through the phospholipid membrane was estimated after 5 h of incubation using UPLC-MS spectrometry (Waters ACQUITY™ TQD system with the TQ Detector, Waters, Milford, CT, USA). The final permeability coefficient (Pe, cm/s) calculation was performed using the formula provided by the vendor of the PAMPA Plate System.

As to `Cn1c(=O)c2c(ncn2C)n(C)c1=O` [Caffeine, reference compound], the Papp at 5 h, 100 μM came out at 12.4 ± 0.6 ×10⁻⁶ cm/s.
